target: human 5-HT6 receptor (Homo sapiens (Human), UniProt P50406); assay: radioligand binding assay (SPA format), [N-methyl-3H]-LSD; conditions: read-out: human 5HT6 Ki

Sequences of proteins named here, by UniProt entry; tags and fusion partners are left off.
UniProt P50406, whole entry: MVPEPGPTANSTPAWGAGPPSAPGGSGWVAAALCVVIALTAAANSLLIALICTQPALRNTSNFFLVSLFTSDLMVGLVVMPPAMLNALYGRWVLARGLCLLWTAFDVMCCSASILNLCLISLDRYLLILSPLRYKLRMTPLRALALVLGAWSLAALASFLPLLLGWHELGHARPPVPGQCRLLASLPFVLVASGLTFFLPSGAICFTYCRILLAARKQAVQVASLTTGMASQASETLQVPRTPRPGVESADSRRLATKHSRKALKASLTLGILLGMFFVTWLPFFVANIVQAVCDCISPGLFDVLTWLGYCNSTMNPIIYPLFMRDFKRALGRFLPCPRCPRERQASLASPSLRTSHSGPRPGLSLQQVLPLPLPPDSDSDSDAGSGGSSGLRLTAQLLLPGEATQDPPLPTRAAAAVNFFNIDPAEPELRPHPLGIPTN

| Structure (SMILES) | Ki [nM] |
| --- | --- |
| Cn1c2c(c3cc(S(=O)(=O)n4ccc5cccnc54)ccc31)C1CCC(C2)N1 (stereo not drawn) [Example 106] | 3.9 |
| Cn1c2c(c3cc(S(=O)(=O)c4cncc5ccccc45)ccc31)C1CCC(C2)N1 (stereo not drawn) [Example 180] | 1.9 |
| Cn1c2c(c3cc(S(=O)(=O)n4ccc5cccnc54)ccc31)C1CCC(C2)N1 (stereo not drawn) [Example 198] | 4.7 |

— US8575186B2, “Epiminocycloalkyl[b] indole derivatives as serotonin sub-type 6 (5-HT6) modulators and uses thereof” (Albany Molecular Research, Inc., priority 2009, dated 2013)
